Assay results taken from paper PMC3372685 (Biochemical Pharmacology, 2012).

Experiments:
[1] = biological target: T1, zebrafish α2β2 nAChR (Danio rerio, UniProt A0ACM8Q9T8+E7F4S7); assay: cell-based
[2] = biological target: zebrafish α3β4 nAChR (Danio rerio, UniProt A0A0R4ISQ3+A0A8M1QHJ5); assay: Inhibition of ACh-evoked responses by co-applied mecamylamine in Xenopus oocytes; assay type: cell-based; conditions: α3β4, peak current IC50 / net charge IC50
[3] = biological target: zebrafish muscle α1β1bεδ nAChR (Danio rerio, UniProt A2BG85+G1FMP8+Q75XT1+Q98880); conditions: peak current IC50 / net charge IC50
[4] = biological target: zebrafish α4β2 nAChR (Danio rerio, UniProt E7F4S7+Q0PJT8); conditions: α4β2, peak current IC50 / net charge IC50
[5] = biological target: T1, zebrafish α2β2 nAChR; conditions: α2β2, peak current IC50 / net charge IC50
[6] = biological target: zebrafish α7 nAChR (Danio rerio, UniProt Q800C7); conditions: α7, peak current IC50 / net charge IC50
[7] = biological target: T1, zebrafish α2β2 nAChR

**Q.** For `CC(=O)OCC[N+](C)(C)C` [ACh, acetylcholine], which EC50 [1] is on record?
**A.** The EC50 was 40 ± 8 µM.

**Q.** Which Ratio [2] does the source give for `CNC1(C)C2CCC(C2)C1(C)C` (stereo not drawn) [mecamylamine] here?
**A.** The Ratio was 12.

**Q.** And the Ratio [3]?
**A.** Its Ratio is 3.0.

**Q.** What about the Ratio [4] of the same molecule?
**A.** Its Ratio is 22.

**Q.** What about the Ratio [5] of the same molecule?
**A.** The Ratio was 0.9.

**Q.** What about the Ratio [6] of the same molecule?
**A.** Its Ratio is 2.1.

**Q.** For `CN1CCC[C@H]1c1cccnc1` [nicotine], which “Agonist type compared to ACh” value [7] is on record?
**A.** The value was “partial agonist”.

**Q.** And the EC50 [1]?
**A.** Its EC50 is 6 ± 1 µM.

**Q.** What about the Emax ([1]; read-out: Imax) of the same molecule?
**A.** The Emax was 30 ± 5%.
